ChEMBL document CHEMBL2440075, “In vitro structure-activity relationships of aplysinopsin analogs and their in vivo evaluation in the chick anxiety-depression model” (Bioorg Med Chem, 2013)

Organism: Homo sapiens
Assay: Selectivity ratio of IC50 for human MAOB to IC50 for human MAOA

Ratio IC50: 80.2
Structure (SMILES): CN1C(=N)N(C)/C(=C/c2c[nH]c3cc(Br)ccc23)C1=O
